Assay results taken from ChEMBL document CHEMBL2203066 (J Med Chem, 2012).

How the values were obtained:
in vivo [1] = conditions: Sprague-Dawley, rat, po, 1 mg/kg
in vivo [2] = conditions: Sprague-Dawley, rat, iv, 1 mg/kg
in vivo [3] = conditions: Sprague-Dawley, rat, po, 3 mg/kg
in vivo [4] = conditions: Sprague-Dawley, rat, iv, 0.5 mg/kg
in vivo [5] = conditions: Sprague-Dawley, rat, po, 3 mg/kg; remark: listed apart in the source
in vivo [6] = conditions: mouse, po, 10 mg/kg
in vivo [7] = conditions: mouse, po, 10 mg/kg; remark: listed apart in the source
in vivo [8] = conditions: Sprague-Dawley, rat, po, 3 mg/kg; remark: listed apart in the source
in vivo [9] = conditions: mouse, po, 10 mg/kg; remark: listed apart in the source
in vivo [10] = conditions: mouse, iv
in vivo [11] = conditions: mouse, po
in vivo [12] = conditions: Sprague-Dawley, rat, po, 0.5 mg/kg
in vivo [13] = conditions: Sprague-Dawley, rat, po, 1 mg/kg; remark: listed apart in the source
in vivo [14] = conditions: Sprague-Dawley, rat, po, 1 mg/kg; remark: listed apart in the source

CCOP(=O)(O)C1=C[C@@H](OC(CC)CC)[C@H](NC(C)=O)[C@@H](N)C1
Vd/F (in vivo [1]): 2.29 L/kg | half-life (in vivo [2]): 1.8 h

CCC(CC)O[C@@H]1C=C(P(=O)(O)O)C[C@H](NC(=N)N)[C@H]1NC(C)=O
bioavailability (in vivo [3]): 3.2% | half-life (in vivo [4]): 0.83 h | Vd/F (in vivo [5]): 59.6 L/kg | Vd/F (in vivo [6]): 36 L/kg | bioavailability (in vivo [7]): 7% | half-life (in vivo [8]): 1.47 h | half-life (in vivo [9]): 2.44 h | half-life (in vivo [10]): 0.53 h | Vd/F (in vivo [11]): 0.51 L/kg | Vd/F (in vivo [12]): 0.91 L/kg

CCC(CC)O[C@@H]1C=C(P(=O)(O)O)C[C@H](N)[C@H]1NC(C)=O [TAMIPHOSPHOR]
half-life (in vivo [13]): 3.05 h | half-life (in vivo [2]): 3.36 h | bioavailability (in vivo [14]): 2.33%
